Test [1] has as its target T1, C. krusei CYP51 (C.krCYP51) (Pichia kudriavzevii, UniProt A9YUC7, K136R). Kind of test: biochemical.
In test [2] the target is T1, C. krusei CYP51 (C.krCYP51). The settings on record: azoles.

Chains of the proteins cited; added tags and fusions are not shown. Residues count along the entry.
UniProt A9YUC7, 2-528 K136R: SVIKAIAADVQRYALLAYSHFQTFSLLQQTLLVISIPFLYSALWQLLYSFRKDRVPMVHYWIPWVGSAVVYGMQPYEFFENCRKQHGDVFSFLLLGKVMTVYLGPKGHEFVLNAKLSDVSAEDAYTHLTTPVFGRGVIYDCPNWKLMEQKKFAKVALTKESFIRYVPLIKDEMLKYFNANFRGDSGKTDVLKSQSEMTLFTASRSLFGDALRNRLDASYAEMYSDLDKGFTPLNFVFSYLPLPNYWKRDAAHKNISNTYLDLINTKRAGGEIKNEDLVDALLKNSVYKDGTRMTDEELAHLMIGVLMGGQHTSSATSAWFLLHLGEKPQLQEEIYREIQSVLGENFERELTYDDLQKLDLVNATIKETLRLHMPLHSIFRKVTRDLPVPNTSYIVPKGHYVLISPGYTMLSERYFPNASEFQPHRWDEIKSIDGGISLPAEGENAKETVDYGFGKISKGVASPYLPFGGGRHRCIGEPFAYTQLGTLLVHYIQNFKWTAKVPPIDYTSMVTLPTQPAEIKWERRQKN

As to `Clc1ccc(COC(Cn2ccnc2)c2ccc(Cl)cc2Cl)cc1` (stereo not drawn) [Econazole], the Kd – broadly, the equilibrium constant for the complex coming apart – in test [1] came out at 1.3 nM. This compound also registered a ΔAmax in test [2] (absorbance change at ligand saturation) of 0.058. The “Type of Spectral Response” value in test [2] (difference spectrum 350–500 nm) is reported as “type II”.

Values taken from article PMC10668980, “Molecular Cloning, Heterologous Expression, Purification, and Evaluation of Protein–Ligand Interactions of CYP51 of Candida krusei Azole-Resistant Fungal Strain” (Biomedicines, 2023).
